Earlier results, collected in patent US20130096134A1, “HETEROCYCLIC COMPOUNDS AND THEIR USES” (Amgen Inc., priority 2010, published 2013).

Sequences of proteins named here, by UniProt entry; tags and fusion partners are left off.
UniProt P42338, whole entry, species assumed: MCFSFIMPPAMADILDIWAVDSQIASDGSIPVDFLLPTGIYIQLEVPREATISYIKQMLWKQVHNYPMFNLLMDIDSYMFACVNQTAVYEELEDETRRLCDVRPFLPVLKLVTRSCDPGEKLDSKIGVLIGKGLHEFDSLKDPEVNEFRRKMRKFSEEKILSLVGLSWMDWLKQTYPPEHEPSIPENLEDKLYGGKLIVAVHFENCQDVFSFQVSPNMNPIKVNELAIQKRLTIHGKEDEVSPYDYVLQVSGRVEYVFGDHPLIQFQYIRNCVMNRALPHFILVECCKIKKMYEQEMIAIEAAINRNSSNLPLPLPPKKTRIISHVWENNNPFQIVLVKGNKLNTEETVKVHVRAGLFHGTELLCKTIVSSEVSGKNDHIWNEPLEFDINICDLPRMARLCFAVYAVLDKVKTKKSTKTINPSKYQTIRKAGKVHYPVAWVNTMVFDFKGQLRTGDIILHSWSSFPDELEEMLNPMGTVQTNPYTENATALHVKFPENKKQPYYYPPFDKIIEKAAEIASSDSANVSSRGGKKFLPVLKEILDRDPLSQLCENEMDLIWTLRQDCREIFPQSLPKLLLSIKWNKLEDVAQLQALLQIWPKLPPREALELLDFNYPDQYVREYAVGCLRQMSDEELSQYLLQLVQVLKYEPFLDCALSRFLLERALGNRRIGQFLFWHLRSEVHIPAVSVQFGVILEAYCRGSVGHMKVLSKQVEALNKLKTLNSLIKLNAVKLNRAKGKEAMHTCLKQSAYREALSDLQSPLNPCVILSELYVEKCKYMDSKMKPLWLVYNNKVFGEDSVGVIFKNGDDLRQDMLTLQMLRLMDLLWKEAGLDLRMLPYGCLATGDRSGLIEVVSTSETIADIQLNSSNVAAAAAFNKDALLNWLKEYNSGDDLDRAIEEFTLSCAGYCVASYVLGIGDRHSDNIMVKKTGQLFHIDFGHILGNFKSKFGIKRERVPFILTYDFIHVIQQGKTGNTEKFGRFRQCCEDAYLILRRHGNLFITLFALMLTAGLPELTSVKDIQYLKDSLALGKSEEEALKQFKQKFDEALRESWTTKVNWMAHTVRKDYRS

Target: P110β (Homo sapiens, UniProt P42338)
Conditions: read-out: potency on beta

In the case of `Cc1cc(C(C)Nc2ccccc2)c2nc(N3CCOCC3)cc(=O)n2c1` (stereo not shown) [TGX-221], the IC50 is listed as 7 nM.
